For the test, the species on record is Homo sapiens. The experiment in a line: Selectivity ratio of IC50 for recombinant human GST-tagged ALK to IC50 for recombinant human GST-tagged ROS1.

Molecules are shown by their SMILES.

With `COc1ccc(CNC(=O)c2cccc(C(C)Oc3ccnc(Nc4cnn(C5CCNCC5)c4)c3)c2)cc1OC` (configuration not stated), the Ratio IC50 turned out to be 12.

Consider `Cc1ccc(CNC(=O)c2cccc(C(C)Oc3ccnc(Nc4cnn(C5CCN(C)CC5)c4)c3)c2)cc1` (configuration not stated), for which the Ratio IC50 stood at 7.

For the origin of these results see ChEMBL document CHEMBL4138202, “Design, synthesis, biological evaluation and molecular modeling of novel 2-amino-4-(1-phenylethoxy) pyridine derivatives as potential ROS1 inhibitors” (Eur J Med Chem, 2018).
